Test results reported in paper PMC9319256, “Human Enzyme PADI4 Binds to the Nuclear Carrier Importin α3” (Cells, 2022).

Legend:
[1] = biological target: ΔImpα3; experiment: Biolayer interferometry (BLI), ΔImpα3; type: binding, human; conditions: peptide 1–7 µM, 25 °C; for Kd: His-tagged ΔImpα3 (0.3 µM) immobilized on His-tag biosensors, buffer recommended by manufacturer; for kon: pseudo-first-order plot; for kon / koff: ΔImpα3 immobilized
Experimental: The association (kon) and dissociation (koff) rate constants of the binding of NLS1/2-PADI4 peptides to Impα3 or ΔImpα3 were determined using a BLItz system (ForteBio, Pall, Barcelona, Spain). The buffer used in the experiments was that recommended by the manufacturer. […] The peptide concentrations were in the range from 1 to 7 µM during the association step. The general scheme of the protein association/dissociation reactions in the BLItz system for NLS1/2-PADI4 with Impα3 and ΔImpα3 immobilized on the biosensor was similar to that described previously.
Fittings of the sensorgrams was carried out using KaleidaGraph (Synergy software, Reading, PA, USA). The interferometry response during the association step, R(t) (measured in response units, RU), and the binding rate, dR(t)/dt, can be used to evaluate the kinetics of the formation of the Impα3/ΔImpα3–NLS1/2-PADI4 complex, according to (3) dR/dt=kon[NLS1/2PADI4](Rmax−R(t))−koffR(t), where Rmax is proportional to the total concentration of biosensor-bound importin species, and [NLS1/2PADI4] represents the concentration of the corresponding NLS1/2-PADI4 peptide.
In Equation (3), R(t) is given by (4) R(t)=Req−Reqe^(−kobs (t−t0)), where Req is the steady-state (or equilibrium) response obtained at infinite time, when dR(t)/dt = 0, and t0 = 180 s is the time at which the association step between biosensor-immobilized Impα3/ΔImpα3 and NLS1/2-PADI4 in the solution started. We fitted the experimentally obtained R(t) under any condition as (5) R(t)=Req−Reqe^(−kobs (t−t0))−Req′e^(−kobs2′ (t−t0)), since an F statistical analysis test of the kinetic constants obtained with a fitting to Equations (4) or (5) was always better in the latter, two-exponential case (at 95% confidence level). With Equation (5), we are assuming that the equilibrium response at infinite time (that is, Req) is reached with the fastest exponential.
The kinetic rate from the second exponential (with a total amplitude smaller than 5%, in all cases, and slower than the other phase) in Equation (5) remained constant at all the peptide concentrations explored.
The dissociation process was always fitted to a single exponential, with R(t) given by (7) R(t)=R1 e^(−koff(t−t0)), where t0 = 300 is the time at which the dissociation of the peptide from the biosensor-bound Impα3/ΔImpα3 started in our experimental setup, and R1 is the response level when dissociation starts.

[2] = biological target: T1, Impα3 (Homo sapiens, UniProt O00629); experiment: Fluorescence titration of Impα3 with NLS1/2-PADI4; type: binding; conditions: 25 °C
T1 construct: made in house
T1 sequence (O00629 1-521): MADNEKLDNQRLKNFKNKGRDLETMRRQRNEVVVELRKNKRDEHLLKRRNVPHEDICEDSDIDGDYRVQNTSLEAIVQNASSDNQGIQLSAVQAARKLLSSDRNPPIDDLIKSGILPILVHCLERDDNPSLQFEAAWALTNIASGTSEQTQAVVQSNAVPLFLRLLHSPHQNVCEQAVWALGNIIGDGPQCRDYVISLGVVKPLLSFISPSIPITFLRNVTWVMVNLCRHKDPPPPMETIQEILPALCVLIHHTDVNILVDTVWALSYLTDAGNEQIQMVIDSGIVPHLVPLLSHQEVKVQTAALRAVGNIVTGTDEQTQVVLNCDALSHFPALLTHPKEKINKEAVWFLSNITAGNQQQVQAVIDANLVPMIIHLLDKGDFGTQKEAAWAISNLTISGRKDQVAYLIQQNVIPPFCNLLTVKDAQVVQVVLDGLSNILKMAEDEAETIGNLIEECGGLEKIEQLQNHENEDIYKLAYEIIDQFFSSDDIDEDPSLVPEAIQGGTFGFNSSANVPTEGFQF
Experimental: (§1) For the titration between either Impα3 or ΔImpα3 and NLS1/2-PADI4, increasing amounts of the corresponding peptide, in the concentration range 0–20 µM, were added to a solution with a fixed concentration of either Impα3 or ΔImpα3 (3 µM). Experiments were carried out in the same buffer used for the titration of the intact PADI4 at 25 °C. The experimental setup was the same as in the steady-state fluorescence experiments. Blank corrections were subtracted in all cases. Spectra were corrected for inner-filter effects during fluorescence excitation. Each titration (Impα3 with NLS1/2-PADI4 or ΔImpα3 with NLS1/2-PADI4) was repeated three times, using newly prepared samples. In the three cases, the variations in the results were lower than 10%.
(§2) Handling and preparation of samples were the same described in Section 2.4.1. The dissociation constant for each complex, Kd, was calculated by fitting the binding isotherm constructed to the general binding model, explicitly considering ligand depletion. […] Fitting to Equation (2) was carried out using KaleidaGraph (Synergy software, Reading, PA, USA).

[3] = biological target: ΔImpα3; experiment: Fluorescence titration of ΔImpα3 with NLS1/2-PADI4; type: binding, human; conditions: fluorescence at 330 nm; 3 µM ΔImpα3, 0–20 µM peptide; 20 mM Tris pH 7.5, 5 mM TCEP, 150 mM NaCl, 5% glycerol, 25 °C; titration repeated three times; read-out: dissociation constant
Experimental: as §1, §2

SMILES | Kd [1] [µM] | kon [1] [M⁻¹ s⁻¹] | koff [1] [s⁻¹] | titration curve outcome ([2]; fluorescence at 330 nm, NLS1-PADI4 added to Impα3 (Figure 9B)) | Kd [3] [µM] | Kd ([2]; fluorescence, 3 µM Impα3, 0–20 µM peptide, 20 mM Tris pH 7.5, 5 mM TCEP, 150 mM NaCl, 5% glycerol, titration repeated three times, read-out: dissociation constant) [µM]
CSCC[C@H](NC(=O)[C@@H](NC(=O)[C@H](CC(C)C)NC(=O)[C@@H](NC(=O)[C@@H](NC(=O)[C@H](CCC(=O)O)NC(=O)[C@@H](NC(=O)CNC(=O)[C@@H]1CCCN1C(=O)[C@H](CC(=O)O)NC(=O)[C@H](CC(C)C)NC(=O)[C@@H]1CCCN1C(=O)[C@H](Cc1c[nH]c2ccccc12)NC(=O)[C@@H](NC(=O)[C@H](CO)NC(=O)[C@H](CO)NC(=O)CNC(=O)[C@@H](NC(=O)[C@H](CO)NC(=O)[C@H](CCCCN)NC(=O)[C@H](CCCCN)NC(=O)[C@H](CCCCN)NC(=O)[C@H](C)NC(C)=O)[C@@H](C)O)[C@@H](C)O)C(C)C)C(C)C)[C@@H](C)O)[C@@H](C)O)C(=O)N[C@@H](CCCCN)C(=O)N[C@H](C(=O)N[C@@H](C)C(=O)N[C@@H](CO)C(N)=O)C(C)C [NLS1-PADI4] | 4 ± 1 | 11000 ± 2000 | 0.046 ± 0.005 | we could not monitor a reasonable titration curve within the constraints given by the experimental error | – | –
CC[C@H](C)[C@H](NC(=O)[C@H](CCCCN)NC(=O)[C@H](CCC(N)=O)NC(=O)[C@H](CCC(N)=O)NC(=O)[C@H](CCCCN)NC(=O)[C@H](CCCCN)NC(=O)[C@H](CCCCN)NC(=O)[C@H](CCCCN)NC(=O)[C@@H](NC(=O)CNC(=O)[C@H](CCC(=O)O)NC(=O)[C@H](Cc1ccccc1)NC(=O)[C@H](CC(C)C)NC(=O)[C@H](CC(C)C)NC(=O)[C@H](C)NC(=O)[C@H](CCC(=O)O)NC(=O)CNC(=O)[C@H](Cc1c[nH]cn1)NC(=O)CNC(=O)[C@H](CCC(=O)O)NC(=O)[C@H](CC(N)=O)NC(=O)[C@H](CCC(N)=O)NC(=O)[C@H](CCC(N)=O)NC(=O)[C@H](CCC(=O)O)NC(=O)[C@H](CCC(N)=O)NC(=O)[C@H](Cc1ccccc1)NC(=O)[C@H](CC(C)C)NC(=O)[C@H](CCCCN)NC(=O)[C@H](Cc1ccc(O)cc1)NC(C)=O)[C@@H](C)CC)C(N)=O [NLS2-PADI4] | 12 ± 4 | 20000 ± 3000 | 0.23 ± 0.01 | – | 4 ± 1 | 4 ± 2
